Test results reported in patent US20210047278A1, “E3 UBIQUITIN LIGASE AGONISTS, PHARMACEUTICAL COMPOSITIONS INCLUDING THE E3 UBIQUITIN LIGASE AGONISTS, RELATED METHODS OF USE” (FRED HUTCHINSON CANCER RESEARCH CENTER, priority 2018, published 2021).

By UniProt entry, the sequences of proteins in these tests, tags left out. Residues count along the entry.
UniProt Q969H0, 64-707 R505L limits assumed: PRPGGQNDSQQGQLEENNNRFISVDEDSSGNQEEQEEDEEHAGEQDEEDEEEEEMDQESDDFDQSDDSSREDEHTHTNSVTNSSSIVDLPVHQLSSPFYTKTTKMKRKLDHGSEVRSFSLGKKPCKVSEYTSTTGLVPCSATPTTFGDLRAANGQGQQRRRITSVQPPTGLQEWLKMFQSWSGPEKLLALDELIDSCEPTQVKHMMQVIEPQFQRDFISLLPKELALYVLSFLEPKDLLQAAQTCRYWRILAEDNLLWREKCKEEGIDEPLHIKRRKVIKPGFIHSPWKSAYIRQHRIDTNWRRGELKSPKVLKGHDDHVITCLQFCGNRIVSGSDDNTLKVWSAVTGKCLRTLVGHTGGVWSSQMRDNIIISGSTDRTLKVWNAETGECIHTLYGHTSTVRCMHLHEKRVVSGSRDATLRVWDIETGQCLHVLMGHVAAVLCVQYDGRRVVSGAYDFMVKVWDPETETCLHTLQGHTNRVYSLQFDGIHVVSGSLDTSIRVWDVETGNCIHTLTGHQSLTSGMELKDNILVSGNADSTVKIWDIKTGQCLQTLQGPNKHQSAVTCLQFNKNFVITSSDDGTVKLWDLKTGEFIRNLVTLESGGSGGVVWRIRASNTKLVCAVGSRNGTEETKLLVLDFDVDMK
UniProt P63208, 2-163 partner limits assumed: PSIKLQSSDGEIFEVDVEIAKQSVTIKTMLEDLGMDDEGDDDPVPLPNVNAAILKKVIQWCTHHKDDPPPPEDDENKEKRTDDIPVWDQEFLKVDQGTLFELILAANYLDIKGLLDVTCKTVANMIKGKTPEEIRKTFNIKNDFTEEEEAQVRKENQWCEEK

Experiments:
pCycE alone = assay: Counterscreen 2 ALPHAscreen with cyclin E phosphopeptide alone (CSRUN2/DCSRUN2); conditions: for CyCEP ACT DCSRUN2 Averaged Max % Response: activation relative to WT-FBW7+pCycE, averaged maximum; for EC50: read-out: CyCEP ACT DCSRUN2 Final EC50, dose-response, triplicate, 10 point 3-fold dilutional series
FBW7^ARG (RLFBW7) alone = FBW7^ARG (RLFBW7) alone (Homo sapiens, UniProt Q969H0, R505L); assay: Counterscreen 1 ALPHAscreen with FBW7^ARG alone (CSRUN1/DCSRUN1)
FBW7^ARG+pCycE = FBW7^ARG+pCycE (Homo sapiens, UniProt Q969H0, R505L); assay: FBW7^ARG-cyclin E agonist ALPHAscreen (primary PRUN, confirmation CRUN1, dose-response DRUN); conditions: for FBW7 ACT Averaged Max % Response / EC50: DRUN dose-response; for FBW7 ACT Averaged Max % Response: relative to WT-FBW7+pCycE; for FBW7 ACT CRUN1 Avg % Response and Stdev: confirmation assay, single concentration 26.1 μM; for FBW7 ACT PRUN % Response: primary screen, 1536-well, 26.1 μM, FBW7^ARG + pCycE degron peptide, high control wt-FBW7+pCycE
[1] = read-out: RLFBW7 ACT DCSRUN1 EC50 Curve Fit Raw, dose-response counterscreen, raw curve fit
[2] = read-out: RLFBW7 ACT DCSRUN1 Final EC50, dose-response counterscreen
[3] = read-out: FBW7 ACT EC50 Curve Fit Raw, Molar, raw curve fit
[4] = read-out: FBW7 ACT Final EC50, Molar, triplicate, 10 point 3-fold dilution, max approx. 87 μM

Compound | CyCEP ACT DCSRUN2 Averaged Max % Response (pCycE alone) [%] | EC50 (pCycE alone) [µM] | RLFBW7 ACT DCSRUN1 Averaged Max % Response (FBW7^ARG (RLFBW7) alone) [%] | EC50 (FBW7^ARG (RLFBW7) alone; [1]) [µM] | EC50 (FBW7^ARG (RLFBW7) alone; [2]) [µM] | FBW7 ACT Averaged Max % Response (FBW7^ARG+pCycE) [%] | FBW7 ACT CRUN1 Avg % Response and Stdev (FBW7^ARG+pCycE; triplicate) [%] | FBW7 ACT PRUN % Response (FBW7^ARG+pCycE) [%] | EC50 (FBW7^ARG+pCycE; [3]) [µM] | EC50 (FBW7^ARG+pCycE; [4]) [µM]
O=C(c1ccco1)N1CCN(c2ncc(-c3ccc(CO)cc3)n3ccnc23)CC1 | 1.13 | > 65.3 | 0.65 | 21.2 | > 65.3 | 20.66 | 4.91 ± 0.57 | 4.77 | 71.5 | > 65.3
CC(=O)Nc1cccc(-c2cnc(N3CCN(C(=O)c4ccco4)CC3)c3nccn23)c1 | 1.97 | > 65.3 | 1.06 | 0.0203 | > 65.3 | 14.24 | 3.35 ± 0.18 | 3.23 | 16.5 | > 65.3
O=C(CC1C(=O)N(c2ccc(Cl)cc2)C(=S)N1CCc1ccc(Cl)cc1)Nc1ccc(F)cc1 (stereo not drawn) | 2.05 | > 49.7 | 1.01 | – | > 49.7 | 8.36 | 3.65 ± 0.87 | 2.03 | 0.0067 | > 49.7
CCCCC(=O)OCCN1C(=O)c2cccc3c(N4CCOCC4)ccc(c23)C1=O | 0.11 | > 62.6 | 10.99 | 15.8 | > 62.6 | 21.12 | 2.96 ± 0.51 | 3.44 | 14.8 | > 62.6

Where two headings read alike, the source gives them in different places.
